Measurements reported in patent US20040053822A1, “Inducing cellular immune responses to mage2/3 using peptide and nucleic acid compositions” (priority 2002, published 2004).
Where two headings read alike, the source gives them in different places.

Columns and labels:
HLA-A*0301 = HLA-A*0301 (Homo sapiens, UniProt P04439); test: Purified HLA class I peptide binding assay, A*0301; settings: binding affinity, HLA-A3 supermotif-bearing peptides
[1] = tested on: A3-supertype alleles (A*0301, A*1101, A*3101, A*3301, and A*6801); test: A3-supertype cross-reactive binding (five alleles); set-up: species or system human
HLA-A*3101 = HLA-A*3101 (Homo sapiens, UniProt P04439, A270S/D185E/E176V/E277Q/F33T/G231S/G80R/H175R/I121M/I218V/I322F/K168Q/L300P/L318F/M331R/P217A/Q94H/R138Q/T323A/T345S/T97I/V358M); test: Purified HLA class I peptide binding assay, A*3101; settings: binding affinity, HLA-A3 supermotif-bearing peptides
HLA-A*3301 = HLA-A*3301 (Homo sapiens, UniProt P04439, A270S/D185E/E176V/E277Q/E87N/F33T/G231S/H175R/I121M/I218V/I322F/K168Q/K210R/L300P/L318F/M331R/P217A/Q86R/Q94H/R138Q/T323A/T345S/T97I/V358M/Y195H); test: Purified HLA class I peptide binding assay, A*3301; settings: binding affinity, HLA-A3 supermotif-bearing peptides
HLA-A*6801 = HLA-A*6801 (Homo sapiens, UniProt P04439, A269V/D185E/E176V/E277Q/E87N/F33Y/G231S/I121M/I166T/I218V/L180W/L300P/L318F/N151K/P208A/P217A/Q86R/R169H/T345S); test: Purified HLA class I peptide binding assay, A*6801
HLA-A*2402 = HLA-A*2402 (Homo sapiens, UniProt P04439, D101N/D140Y/D185E/E176V/E190D/F33S/G103R/G107R/I119L/I121M/I306V/K335N/L105A/L180Q/L300P/N151K/N90K/Q86E/Q94H/R106L/R138H/R89G/T104I/T345S/V100E/W191G/Y123F); test: Purified HLA class I peptide binding assay, A*2402
HLA-A*1101 = HLA-A*1101 (Homo sapiens, UniProt P04439, A114D/D185E/E176A/F33Y/L180Q/S129P/T187R); test: Purified HLA class I peptide binding assay, A*1101; settings: binding affinity, HLA-A3 supermotif-bearing peptides
[2] = binding affinity, HLA-A3 supermotif-bearing peptides, read-out: A*6801 nM
[3] = read-out: A*[…], A24 motif-bearing peptides, Table XXVIB

| SMILES | IC50 (HLA-A*0301) [nM] | No. of A3 Alleles Crossbound [1] | IC50 (HLA-A*3301) [nM] | IC50 (HLA-A*6801; [2]) [nM] | also measured |
| --- | --- | --- | --- | --- | --- |
| CC[C@H](C)[C@H](NC(=O)[C@H](CCC(N)=O)NC(=O)[C@H](CC(N)=O)NC(=O)[C@H](CC(=O)O)NC(=O)CNC(=O)[C@H](CC(C)C)NC(=O)[C@@H](N)CC(C)C)C(=O)N[C@@H](CCSC)C(=O)N1CCC[C@H]1C(=O)N[C@@H](CCCCN)C(=O)O | 500 | 3 | > 10000 | 372 | IC50 (HLA-A*3101): > 10000 nM |
| CC(C)C[C@H](NC(=O)[C@H](CC(C)C)NC(=O)[C@H](CC(C)C)NC(=O)[C@H](Cc1ccccc1)NC(=O)[C@H](Cc1c[nH]cn1)NC(=O)[C@@H](NC(=O)[C@@H](N)CC(C)C)C(C)C)C(=O)N[C@@H](CCCCN)C(=O)N[C@@H](Cc1ccc(O)cc1)C(=O)O |  | 2 |  | 8000 |  |
| CC[C@H](C)[C@H](NC(=O)[C@@H](NC(=O)[C@@H](NC(=O)[C@H](CO)NC(=O)[C@H](Cc1ccc(O)cc1)NC(=O)[C@@H](N)CO)[C@@H](C)O)[C@@H](C)O)C(=O)N[C@@H](CC(N)=O)C(=O)N[C@@H](Cc1ccc(O)cc1)C(=O)N[C@H](C(=O)N[C@@H](Cc1ccccc1)C(=O)O)[C@@H](C)O [Peptide 57.0084] |  |  |  |  | IC50 (HLA-A*2402; [3]): 14.8 nM |
| CSCC[C@H](NC(=O)[C@@H](N)CO)C(=O)N[C@@H](CC(C)C)C(=O)N[C@@H](CCC(=O)O)C(=O)N[C@H](C(=O)N[C@@H](Cc1ccccc1)C(=O)N[C@@H](CCC(=O)O)C(=O)NCC(=O)N[C@@H](CCCCN)C(=O)O)C(C)C |  | 4 | 387 |  | IC50 (HLA-A*1101): 3.8 nM; IC50 (HLA-A*3101): 120 nM |
| CC[C@H](C)[C@H](NC(=O)[C@@H](NC(=O)[C@@H]1CCCN1C(=O)[C@H](Cc1ccccc1)NC(=O)[C@@H](NC(=O)[C@@H](N)Cc1ccc(O)cc1)C(C)C)C(C)C)C(=O)N[C@@H](Cc1ccccc1)C(=O)N[C@@H](CO)C(=O)N[C@@H](CCCCN)C(=O)O | 24 | 3 |  |  | IC50 (HLA-A*1101): 3 nM; IC50 (HLA-A*3101): 2770 nM; IC50 (HLA-A*6801): 1.7 nM |
| CC(C)C[C@H](NC(=O)[C@@H](NC(=O)[C@H](CCCCN)NC(=O)[C@@H](NC(=O)[C@H](Cc1ccc(O)cc1)NC(=O)[C@@H](N)CO)C(C)C)C(C)C)C(=O)N[C@@H](Cc1c[nH]cn1)C(=O)N[C@@H](Cc1c[nH]cn1)C(=O)N[C@H](C(=O)N[C@@H](Cc1ccccc1)C(=O)O)[C@@H](C)O |  |  |  |  | IC50 (HLA-A*2402; HLA-A24 motif-bearing peptides, Table XXVIa): 34 nM |
| CC[C@H](C)[C@H](N)C(=O)N[C@@H](Cc1ccc(O)cc1)C(=O)N[C@@H](CO)C(=O)N[C@@H](CCCCN)C(=O)N[C@@H](C)C(=O)N[C@@H](CO)C(=O)N[C@@H](CCC(=O)O)C(=O)N[C@@H](Cc1ccc(O)cc1)C(=O)N[C@@H](Cc1ccccc1)C(=O)O [Peptide 57.0062] |  |  |  |  | IC50 (HLA-A*2402; [3]): 14.6 nM |
| CC(C)C[C@H](NC(=O)[C@H](CC(=O)O)NC(=O)[C@@H]1CCCN1C(=O)[C@H](Cc1ccc(O)cc1)NC(=O)[C@@H](N)[C@@H](C)O)C(=O)N[C@@H](CCC(=O)O)C(=O)N[C@@H](CO)C(=O)N[C@@H](CCC(=O)O)C(=O)N[C@@H](Cc1ccccc1)C(=O)O [Peptide 57.0065] |  |  |  |  | IC50 (HLA-A*2402; [3]): 218 nM |

Now from value to compound, other results behind:

| IC50 (HLA-A*0301) [nM] | No. of A3 Alleles Crossbound [1] | IC50 (HLA-A*3301) [nM] | IC50 (HLA-A*6801; [2]) [nM] | SMILES | also measured |
| --- | --- | --- | --- | --- | --- |
| > 10000 | 4 |  |  | CC(C)C[C@H](NC(=O)[C@@H](NC(=O)[C@@H](N)CO)C(C)C)C(=O)N[C@@H](CCC(=O)O)C(=O)N[C@H](C(=O)N[C@@H](Cc1ccccc1)C(=O)N[C@@H](CCC(=O)O)C(=O)NCC(=O)N[C@@H](CCCNC(=N)N)C(=O)O)C(C)C |  |
| 20 | 3 | 9670 | 5.7 | CC[C@H](C)[C@H](NC(=O)[C@@H](NC(=O)[C@@H](NC(=O)[C@H](CO)NC(=O)[C@H](Cc1ccccc1)NC(=O)[C@@H](NC(=O)[C@@H](N)CO)C(C)C)[C@@H](C)O)[C@@H](C)O)C(=O)N[C@@H](CC(N)=O)C(=O)N[C@@H](CCCCN)C(=O)O | IC50 (HLA-A*1101): 8.2 nM |
|  |  | > 10000 | 26 | CC[C@H](C)[C@H](NC(=O)[C@@H](NC(=O)[C@@H](NC(=O)[C@H](CO)NC(=O)[C@H](Cc1ccccc1)NC(=O)[C@H](CO)NC(=O)[C@@H](N)CO)[C@@H](C)O)[C@@H](C)O)C(=O)N[C@@H](CC(N)=O)C(=O)N[C@@H](CCCCN)C(=O)O |  |
| > 10000 | 3 |  |  | CC[C@H](C)[C@H](NC(=O)[C@@H](NC(=O)[C@H](C)N)C(C)C)C(=O)N[C@@H](CCC(=O)O)C(=O)N[C@H](C(=O)N[C@@H](CO)C(=O)N[C@@H](Cc1ccc(O)cc1)C(=O)N[C@H](C(=O)N[C@@H](CCCNC(=N)N)C(=O)O)C(C)C)[C@@H](C)O |  |
